A word on the pKi: it is the Ki on a negative log10 scale, so that one unit is a factor of ten.

pKi: −log10 of the molar value.

These results are taken from patent US20220226329A1, “METHOD TO INDUCE HEMATOPOIETIC CHIMERISM” (The General Hospital Corporation, priority 2019, published 2022).

For data set [1] the following is noted: no significant toxicity otherwise.
A further data set has as its target Bcl-2. The following applies: Selleckchem.com; read-out: inhibitor constant (Ki) to the target proteins; cited from earlier work.

With `Cc1c(-c2c(-c3ccc(F)o3)sc3ncnc(O[C@H](Cc4ccccc4OCc4ccnn4CC(F)(F)F)C(=O)O)c23)ccc(OCCN2CCN(C)CC2)c1Cl` [S63845], the Toxicity result in data set [1] is “mild transient transaminitis and elevated amylase”. On to `CC1(C)CCC(c2ccc(Cl)cc2)=C(CN2CCN(c3ccc(C(=O)NS(=O)(=O)c4ccc(N[C@H](CCN5CCOCC5)CSc5ccccc5)c(S(=O)(=O)C(F)(F)F)c4)cc3)CC2)C1` [navitoclax], for which the pKi on Bcl-2 is 9.30.
